Measured values as given in paper PMC4738175 (Cancer letters, 2015).

Tested on: phosphorylated ERK1/2
Assay: Immunohistochemical staining of phosphorylated ERK1/2 in PK03 tumors
Conditions: 10mg/kg, n = 3 mice/group, vs PK03 control

CNC(=O)c1cc(Oc2ccc(NC(=O)Nc3ccc(Cl)c(C(F)(F)F)c3)cc2)ccn1 [Sorafenib]
staining intensity of phosphorylated ERK1/2: 63 ± 21.2
